Experimental data: ChEMBL document CHEMBL1157649, “Cytotoxic 2-benzylidene-6-(nitrobenzylidene)cyclohexanones which display substantially greater toxicity for neoplasms than non-malignant cells” (Bioorg Med Chem, 2010)

How the values were obtained:
Format in all cases: functional
HSC-2 = test: Selectivity index, ratio of CC50 for human normal cells to CC50 for human HSC2 cells
Outline: (§1)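 The index is the average CC50 toward the three normal cell types (HGF, HPC, HPLF) divided by the CC50 toward the indicated malignant line.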

HSC-4 = test: Selectivity index, ratio of CC50 for human normal cells to CC50 for human HSC4 cells; outline: as §1
HL-60 = test: Selectivity index, ratio of CC50 for human normal cells to CC50 for human HL60 cells; outline: as §1

O=C1/C(=C/c2ccc(F)cc2)CCC/C1=C\c1ccccc1[N+](=O)[O-]
Selectivity Index (HSC-2): 20 | Selectivity Index (HSC-4): 24 | Selectivity Index (HL-60): 18
